Measurements: article PMC11156613 (Journal of Advanced Research, 2023)

Tested on: HEL cells
Assay: Apoptosis induction, annexin-V/PI flow cytometry
Assay type: cell-based, human
Details: 24 h

In the case of O=C(CCCCCCC(=O)Nc1ccccc1)NO [SAHA, reference compound], the “concentration at which apoptosis induction starts” value was “approximately 400 nM”.
